Results from patent US20210148907A1.

Molecular target: Flag-tagged full length BCL10 (human) (UniProt O95999)
Test: cell-based or functional assay

## Death-associated protein 3 (DAP3) (from UniProt P51398 22-398)
  fold activation of NF-κB by transfected BCL10 in DAP-3 knocked-down Jurkat cells: 3.5 fold
  fold activation of NF-κB by transfected BCL10 in Jurkat cells in the absence of siDAP-3: 9.3 fold
  increase of the cytochrome c band in cytosolic fractions of DAP3-depleted against non-depleted HeLa cells transfected with Flag-BCL10 (immunoblot): 30%
  percent apoptotic HeLa cells, DAP3 depleted by siDAP3, 0.2 µg Flag-BCL10 construct: 25.6%
  percent apoptotic HeLa cells, DAP3 depleted by siDAP3, 1.0 µg Flag-BCL10 construct: 49.3%
  percent dead HeLa cells, transfections lacking the DAP3 silencer, 0.2 µg Flag-BCL10 construct: 17.6%
  percent dead HeLa cells, transfections lacking the DAP3 silencer, 1.0 µg Flag-BCL10 construct: 36.7%
